Data as given in US20180008587A1, “THIOHYDANTOIN ANDROGEN RECEPTOR ANTAGONISTS FOR THE TREATMENT OF CANCER” (Jaressen Pharmaceutica NV, priority 2016, published 2018).

Sequences of proteins named here, by UniProt entry; tags and fusion partners are left off. Residues count along the entry.
UniProt P10275, 560-920 limits assumed: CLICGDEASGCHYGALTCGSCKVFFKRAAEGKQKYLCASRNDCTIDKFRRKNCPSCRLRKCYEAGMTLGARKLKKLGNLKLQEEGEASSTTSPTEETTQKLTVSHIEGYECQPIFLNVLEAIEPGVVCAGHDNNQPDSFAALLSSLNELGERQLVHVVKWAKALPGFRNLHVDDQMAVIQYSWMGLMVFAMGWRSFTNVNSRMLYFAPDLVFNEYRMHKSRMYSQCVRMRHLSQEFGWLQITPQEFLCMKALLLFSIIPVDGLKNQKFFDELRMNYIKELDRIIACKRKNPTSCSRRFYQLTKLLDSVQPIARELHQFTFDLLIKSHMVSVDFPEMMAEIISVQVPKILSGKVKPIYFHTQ
UniProt P10275, whole entry T878A: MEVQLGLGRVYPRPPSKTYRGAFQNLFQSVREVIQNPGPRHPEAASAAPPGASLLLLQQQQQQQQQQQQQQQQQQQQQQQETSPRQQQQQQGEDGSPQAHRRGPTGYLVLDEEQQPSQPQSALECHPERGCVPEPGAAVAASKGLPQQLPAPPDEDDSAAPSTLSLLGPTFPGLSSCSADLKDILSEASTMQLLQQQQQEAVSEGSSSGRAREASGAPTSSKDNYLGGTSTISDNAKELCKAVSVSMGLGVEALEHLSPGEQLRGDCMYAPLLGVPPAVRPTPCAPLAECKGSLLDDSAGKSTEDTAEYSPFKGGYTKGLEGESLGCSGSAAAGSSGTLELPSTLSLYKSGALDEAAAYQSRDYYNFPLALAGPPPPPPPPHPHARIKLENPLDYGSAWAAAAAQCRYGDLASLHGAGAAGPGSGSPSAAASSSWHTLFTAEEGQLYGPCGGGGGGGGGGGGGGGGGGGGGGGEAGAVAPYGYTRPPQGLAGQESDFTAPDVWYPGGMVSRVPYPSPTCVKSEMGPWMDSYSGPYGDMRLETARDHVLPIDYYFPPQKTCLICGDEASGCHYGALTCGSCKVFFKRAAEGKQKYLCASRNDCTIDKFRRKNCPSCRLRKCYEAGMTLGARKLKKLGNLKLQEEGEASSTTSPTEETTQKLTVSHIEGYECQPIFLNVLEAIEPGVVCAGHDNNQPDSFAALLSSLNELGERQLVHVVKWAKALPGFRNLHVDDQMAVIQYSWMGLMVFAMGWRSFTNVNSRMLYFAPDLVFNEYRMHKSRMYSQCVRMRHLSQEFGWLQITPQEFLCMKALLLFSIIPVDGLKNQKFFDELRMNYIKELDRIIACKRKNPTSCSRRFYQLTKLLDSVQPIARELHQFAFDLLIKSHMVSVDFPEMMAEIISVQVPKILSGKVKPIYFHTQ
UniProt P10275, whole entry H875Y: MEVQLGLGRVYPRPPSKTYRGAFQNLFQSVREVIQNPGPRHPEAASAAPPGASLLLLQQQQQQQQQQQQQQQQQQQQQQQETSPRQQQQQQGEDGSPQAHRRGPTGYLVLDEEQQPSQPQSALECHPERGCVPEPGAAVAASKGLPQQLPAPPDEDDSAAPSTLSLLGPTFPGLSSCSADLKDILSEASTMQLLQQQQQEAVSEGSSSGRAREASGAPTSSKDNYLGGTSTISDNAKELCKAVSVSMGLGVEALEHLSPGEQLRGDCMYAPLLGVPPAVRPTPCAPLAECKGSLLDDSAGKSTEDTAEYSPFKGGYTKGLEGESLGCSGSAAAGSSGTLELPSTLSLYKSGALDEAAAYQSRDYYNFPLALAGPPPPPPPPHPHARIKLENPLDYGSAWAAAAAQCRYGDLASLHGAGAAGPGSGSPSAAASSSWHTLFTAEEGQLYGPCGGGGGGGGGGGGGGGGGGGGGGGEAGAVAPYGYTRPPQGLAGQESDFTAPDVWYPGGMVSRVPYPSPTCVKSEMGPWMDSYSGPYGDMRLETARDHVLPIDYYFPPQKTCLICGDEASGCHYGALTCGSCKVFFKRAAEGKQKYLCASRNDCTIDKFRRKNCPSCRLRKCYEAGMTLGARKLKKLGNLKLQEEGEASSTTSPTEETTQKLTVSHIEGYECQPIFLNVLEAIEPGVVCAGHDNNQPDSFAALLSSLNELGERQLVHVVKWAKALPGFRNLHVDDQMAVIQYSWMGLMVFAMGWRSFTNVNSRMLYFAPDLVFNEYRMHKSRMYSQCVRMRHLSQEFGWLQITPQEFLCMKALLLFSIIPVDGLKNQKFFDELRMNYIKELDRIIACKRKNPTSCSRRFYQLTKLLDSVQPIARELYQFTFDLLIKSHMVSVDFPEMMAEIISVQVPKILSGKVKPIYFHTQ
UniProt P10275, whole entry W742C: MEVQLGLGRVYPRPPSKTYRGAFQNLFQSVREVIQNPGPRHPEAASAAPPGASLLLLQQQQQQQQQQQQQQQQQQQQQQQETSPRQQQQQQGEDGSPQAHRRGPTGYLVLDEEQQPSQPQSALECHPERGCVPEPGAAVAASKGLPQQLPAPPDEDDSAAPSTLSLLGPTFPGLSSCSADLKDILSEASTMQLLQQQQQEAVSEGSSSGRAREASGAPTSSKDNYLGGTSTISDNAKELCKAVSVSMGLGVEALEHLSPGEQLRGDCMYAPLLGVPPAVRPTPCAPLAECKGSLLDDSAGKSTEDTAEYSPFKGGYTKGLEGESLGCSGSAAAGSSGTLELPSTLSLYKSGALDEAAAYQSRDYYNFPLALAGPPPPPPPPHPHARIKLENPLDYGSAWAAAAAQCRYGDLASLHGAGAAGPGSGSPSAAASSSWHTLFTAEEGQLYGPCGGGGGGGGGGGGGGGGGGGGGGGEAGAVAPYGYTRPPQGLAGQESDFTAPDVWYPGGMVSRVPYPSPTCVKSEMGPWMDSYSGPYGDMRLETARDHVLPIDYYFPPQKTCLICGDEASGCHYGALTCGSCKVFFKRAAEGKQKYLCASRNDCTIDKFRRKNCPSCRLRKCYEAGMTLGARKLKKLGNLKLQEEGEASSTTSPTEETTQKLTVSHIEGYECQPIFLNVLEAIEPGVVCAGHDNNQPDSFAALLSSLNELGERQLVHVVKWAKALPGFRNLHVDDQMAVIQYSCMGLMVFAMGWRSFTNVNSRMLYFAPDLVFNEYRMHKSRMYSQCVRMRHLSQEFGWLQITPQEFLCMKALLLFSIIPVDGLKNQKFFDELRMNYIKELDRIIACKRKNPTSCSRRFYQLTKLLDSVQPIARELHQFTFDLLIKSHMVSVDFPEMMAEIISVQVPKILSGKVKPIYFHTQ
UniProt P10275, whole entry L702H: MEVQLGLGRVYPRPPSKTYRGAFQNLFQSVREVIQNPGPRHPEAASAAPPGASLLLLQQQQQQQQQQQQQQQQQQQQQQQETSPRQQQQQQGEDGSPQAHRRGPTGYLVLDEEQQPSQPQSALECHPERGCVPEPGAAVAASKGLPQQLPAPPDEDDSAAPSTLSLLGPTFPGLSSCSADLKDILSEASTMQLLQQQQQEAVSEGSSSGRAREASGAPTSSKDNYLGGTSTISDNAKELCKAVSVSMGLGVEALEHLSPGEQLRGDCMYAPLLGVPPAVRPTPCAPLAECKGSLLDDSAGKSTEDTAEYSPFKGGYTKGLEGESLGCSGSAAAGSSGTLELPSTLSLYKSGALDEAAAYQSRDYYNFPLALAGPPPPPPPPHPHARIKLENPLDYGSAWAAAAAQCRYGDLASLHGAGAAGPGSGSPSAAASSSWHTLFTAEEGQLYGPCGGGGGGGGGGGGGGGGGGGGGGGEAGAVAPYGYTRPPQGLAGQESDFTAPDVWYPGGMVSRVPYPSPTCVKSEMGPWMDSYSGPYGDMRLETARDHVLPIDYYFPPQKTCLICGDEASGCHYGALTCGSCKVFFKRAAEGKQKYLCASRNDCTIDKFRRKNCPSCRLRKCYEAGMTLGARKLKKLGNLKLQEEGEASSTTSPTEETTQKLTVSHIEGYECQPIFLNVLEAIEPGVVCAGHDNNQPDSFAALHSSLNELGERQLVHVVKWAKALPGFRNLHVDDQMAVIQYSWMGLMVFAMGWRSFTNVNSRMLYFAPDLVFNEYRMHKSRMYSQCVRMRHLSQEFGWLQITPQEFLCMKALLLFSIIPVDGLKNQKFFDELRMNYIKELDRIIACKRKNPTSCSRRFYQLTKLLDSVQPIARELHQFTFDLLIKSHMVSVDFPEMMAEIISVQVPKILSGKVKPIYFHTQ

Columns and labels:
Format in all cases: cell-based
AR-VP16 = AR-VP16 (Homo sapiens, UniProt P10275); experiment: AR-VP16 DNA binding assay, HepG2
Description: HepG2 cells were maintained in EMEM supplemented with 10% FBS. One day before transfection, the media was changed to EMEM with 10% CSS. […] Cells were then trypsinized, counted and resuspended at 500,000 cells/mL. For agonist mode, the compounds were serially diluted and 50 μL of the compound was added per well. 50 μL of the cells were added to each well and incubated for 48 hours. […] The plates were then assayed using SteadyGlo and read on the Envision. Percent Stimulation and Inhibition were determined and analyzed using GraphPad Prism.

[1] = target: T1, wild-type Androgen Receptor (AR-wt) (Homo sapiens, UniProt P10275); experiment: LNCaP-AR-wt AG reporter assay (ARE firefly luciferase, agonist mode); conditions: for Emax: read-out: LNCaP-AR-wt AG MAX % Stim
T1 construct: expressed in transfected cells; host or cells: LNCaP (LNCaP AR (cs))

[2] = target: T1, wild-type Androgen Receptor (AR-wt); experiment: LNCaP-AR-wt ANT reporter assay (ARE firefly luciferase, antagonist mode); conditions: for Emax: read-out: LNCaP-AR-wt ANT MAX % Inh
AR T877A = target: T2, AR T877A (Homo sapiens, UniProt P10275, T878A); experiment: Luciferase transcriptional reporter assay, mutant AR, HepG2, antagonist mode; conditions: HepG2, 90 pM R1881, 48 hours; * denotes incomplete inhibition (otherwise 100%); read-out: Antagonism; IC50, AR construct T877A
T2 construct: expressed in transfected cells; host or cells: HepG2
Description: (§1) HepG2 cells were maintained in EMEM supplemented with 10% FBS. One day before transfection, the media was changed to EMEM with 10% CSS. T-150 flasks were transiently transfected using 120 μL Lipofectamine 2000 (Life Technologies), 30 μg mutant cDNA (expression vector)—mutant cDNA tested were L701H, T877A, W741C and H874Y—and 40 μg 4×ARE-Luciferase (reporter vector) in OptiMEM and the flasks were incubated overnight. Cells were then trypsinized, counted and resuspended at 500,000 cells/mL. For agonist mode, the compounds of Formula (I) are serially diluted and 50 μL of the compound added per well. 50 μL of the cells are added to each well and incubated for 48 hours. For antagonist mode, a final concentration of 90 pM R1881 was added to the diluted compounds and incubated for 48 hours. The plates were then assayed using SteadyGlo and read on the Envision. Percent Stimulation and Inhibition is determined and analyzed using GraphPad Prism.
(§2) The antagonistic (IC50) values for each of the AR cDNA used in the reporter assays are summarized. NT is not tested * denotes incomplete inhibition (otherwise 100%). All values are calculated relative to the activity of R1881 induced androgen receptor activity (n≧3).

AR H874Y = target: T3, AR H874Y (Homo sapiens, UniProt P10275, H875Y); experiment: as above; conditions: HepG2, 90 pM R1881, 48 hours; * denotes incomplete inhibition (otherwise 100%); read-out: Antagonism; IC50, AR construct H874Y
T3 construct: expressed in transfected cells; host or cells: HepG2
Description: as §1, §2

AR W741C = target: T4, AR W741C (Homo sapiens, UniProt P10275, W742C); experiment: as above; conditions: HepG2, 90 pM R1881, 48 hours; * denotes incomplete inhibition (otherwise 100%); read-out: Antagonism; IC50, AR construct W741C
T4 construct: expressed in transfected cells; host or cells: HepG2
Description: as §1, §2

AR L701H = target: T5, AR L701H (Homo sapiens, UniProt P10275, L702H); experiment: as above; conditions: HepG2, 90 pM R1881, 48 hours; * denotes incomplete inhibition (otherwise 100%); read-out: Antagonism; IC50, AR construct L701H
T5 construct: expressed in transfected cells; host or cells: HepG2
Description: as §1, §2

## N#Cc1ncc(N2C(=O)C3(CCC3)N(c3ccc(N4CCNCC4)cc3)C2=S)cc1C(F)(F)F [Cpd 8, 5-[5-oxo-8-(4-piperazin-1-ylphenyl)-7-thioxo-6,8-diazaspiro[3.4]octan-6-yl]-3-(trifluoromethyl)pyridine-2-carbonitrile]
AR-VP16
  IC50: 0.121 µM
[1]
  EC50: > 15.1 µM
  Emax: 0.2%
[2]
  IC50: 2.69 µM
  Emax: 98.8%

## N#Cc1ncc(N2C(=O)C3(CCC3)N(c3ccc(O)cc3)C2=S)cc1C(F)(F)F [Cpd 77, 5-[8-(4-hydroxyphenyl)-5-oxo-7-thioxo-6,8-diazaspiro[3.4]octan-6-yl]-3-(trifluoromethyl)pyridine-2-carbonitrile]
[1]
  EC50: > 15.1 µM
  Emax: 0.8%
[2]
  IC50: 0.204 µM
  Emax: 99.5%

## CN1CCC(Oc2ccc(N3C(=S)N(c4cnc(C#N)c(C(F)(F)F)c4)C(=O)C34CCC4)cc2)CC1 [Cpd 85, 5-[8-[4-[(1-methyl-4-piperidyl)oxy]phenyl]-5-oxo-7-thioxo-6,8-diazaspiro[3.4]octan-6-yl]-3-(trifluoromethyl)pyridine-2-carbonitrile]
AR T877A
  IC50: 11.2 µM
AR H874Y
  IC50: 9.48 µM
AR W741C
  IC50: 14 µM
AR L701H
  IC50: 8.86 µM
AR-VP16; HepG2, antagonist mode, 90 pM R1881, 48 hours, read-out: IC50 VP16 WT
  IC50: 0.96 µM
[1]; agonist mode, −Log10(EC50 [Molar]), read-out: LNCaP-AR-wt AG pEC50 (converted)
  EC50: > 15.1 µM
[2]; antagonist mode, 400 pM R-1881 challenge, −Log10(IC50 [Molar]), read-out: LNCaP-AR-wt ANT pIC50 (converted)
  IC50: 0.186 µM

Like-named read-outs stand apart in the source and are kept apart here.
